These are literature values, as cited in patent US12158464B2, “Methods for modeling disease tissue using three-dimensional tissue systems” (priority 2013, dated 2024).

The series relates to mammalian venules. The note with it: not told; cited from earlier work.

On to FITC-Dextran, for which the “permeability of mammalian venules in vivo” value is given as “(0.15±0.05)×10^−6 cm s^−1”.
